Results on four compounds are retold here after PubChem BioAssay AID651548 (Broad Institute, 2012).

Sequences of proteins named here, by UniProt entry; tags and fusion partners are left off.
UniProt Q15910, whole entry, looked up: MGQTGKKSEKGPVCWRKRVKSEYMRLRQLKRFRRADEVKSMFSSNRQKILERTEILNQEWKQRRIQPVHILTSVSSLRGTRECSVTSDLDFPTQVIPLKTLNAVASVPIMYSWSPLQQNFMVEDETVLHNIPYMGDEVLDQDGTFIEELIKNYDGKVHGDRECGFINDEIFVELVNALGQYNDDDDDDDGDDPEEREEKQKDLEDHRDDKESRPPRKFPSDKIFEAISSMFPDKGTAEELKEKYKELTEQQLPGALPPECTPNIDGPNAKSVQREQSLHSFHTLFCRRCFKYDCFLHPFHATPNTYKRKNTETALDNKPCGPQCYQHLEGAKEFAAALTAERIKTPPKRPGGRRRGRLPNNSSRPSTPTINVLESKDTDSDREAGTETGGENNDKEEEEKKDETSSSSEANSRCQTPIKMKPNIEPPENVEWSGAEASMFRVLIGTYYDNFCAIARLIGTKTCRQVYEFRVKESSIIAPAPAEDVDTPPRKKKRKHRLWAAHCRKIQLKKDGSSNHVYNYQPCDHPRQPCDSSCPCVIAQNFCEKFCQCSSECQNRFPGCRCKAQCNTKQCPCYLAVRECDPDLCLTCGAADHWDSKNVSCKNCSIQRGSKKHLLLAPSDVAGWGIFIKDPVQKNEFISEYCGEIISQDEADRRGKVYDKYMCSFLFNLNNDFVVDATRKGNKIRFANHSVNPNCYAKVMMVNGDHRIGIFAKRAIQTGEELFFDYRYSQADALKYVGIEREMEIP

The entries are a selection whose mix differs from that of the whole data set. Active and inactive are the calls of the source.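 How the source made its calls: active means mean inhibition of replicates at least 50% and every single replicate also reaching 50%; inconclusive means mean inhibition at least 50% but some replicate falls below 50%; inactive means mean inhibition under 50%.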

This assay concerns the target Histone-lysine N-methyltransferase EZH2 (Homo sapiens) (UniProt Q15910). The assay can be described thus: EZH2/PRC2 methyltransferase inhibitors, primary screen, biochemical, DELFIA time-resolved fluorescence, single point (AID 651548).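 Further: dimethyl H3K27 on biotinylated H3 21-44 peptide detected by antibody; plate controls were median neutral control wells for no effect and median positive control wells for full effect.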 Conditions: PRC2 H3K27 methylation, DELFIA TRF, 1 h; at 12.5 µM; stronger effect = higher value.
Consider `COc1ccc(CN2/C(=N\P(=O)(Oc3ccccc3)Oc3ccccc3)Cc3ccccc3C2C2CC2)cc1` (centres undefined), for which the inhibition was inactive: 38%.

Take `COc1ccc(CN2/C(=N/P(=O)(Oc3ccccc3)Oc3ccccc3)CC(C)=CC2C)cc1` (centres undefined): the inhibition was active: 63.3%. For `C=CC1C=C(C)C/C(=N\P(=O)(Oc2ccccc2)Oc2ccccc2)N1Cc1ccc(OC)cc1` (centres undefined), the inhibition is active: 68.7%.

Regarding `CN(C(=O)Cc1ccc(Cl)c(Cl)c1)[C@H]1CCCC[C@@H]1N1CCCC1`, the inhibition is inactive: -13.4%.

By inhibition is commonly meant the drop in the measured response relative to a control, in per cent.
